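A five-concentration, 48-hour dose response in 96-well plates underlies each endpoint, interpolated linearly between surrounding concentrations. The concentration for 50% growth inhibition is given as GI50. TGI: concentration producing complete growth inhibition.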
Experiments:
Test in all cases: NCI anticancer screen, dose series, 48 h
[1] = tested on: NCI-H460 lung
[2] = tested on: EKVX NSCLC
[3] = tested on: HL-60(TB) leukemia
[4] = tested on: SF-268 CNS
[5] = tested on: SW-620 colon
[6] = tested on: PC-3 prostate
[7] = tested on: MOLT-4 leukemia
[8] = tested on: HOP-62 NSCLC
[9] = tested on: OVCAR-3 ovarian
[10] = tested on: SK-OV-3 ovarian
[11] = tested on: A498 renal
[12] = tested on: NCI-H23 lung
[13] = tested on: SNB-19 CNS
[14] = tested on: HCT-15 colon
[15] = tested on: U251 CNS
[16] = tested on: T-47D breast
[17] = tested on: CCRF-CEM leukemia
[18] = tested on: NCI-H522 lung
[19] = tested on: MDA-MB-231 breast
[20] = tested on: SK-MEL-5 melanoma
[21] = tested on: SR leukemia
[22] = tested on: 786-0 renal
[23] = tested on: NCI-H226 lung
[24] = tested on: MDA-MB-435
[25] = tested on: SN12C renal
[26] = tested on: SF-539 CNS
[27] = tested on: RPMI-8226 leukemia
[28] = tested on: OVCAR-8 ovarian
[29] = tested on: MALME-3M melanoma

With `CC(=O)O[C@@H]1C[C@H]2O[C@@H]3C=C(C)CC[C@]3(C)[C@]1(C)[C@]21CO1` the TGI [1] was 9.82 µM, the GI50 [2] was 2.49 µM and the TGI [2] was 23.7 µM. It also gave a GI50 [3] of 0.975 µM, a TGI [3] of 2.69 µM and a GI50 [4] of 1.55 µM. It also gave a TGI [4] of 20.8 µM, a GI50 [5] of 1.29 µM and a TGI [5] of 16.7 µM. For the same molecule, the GI50 [6] was 5.32 µM, the TGI [6] was greater than 33.3 µM and the GI50 [7] was 1.08 µM. The TGI [7] was 26.8 µM, the GI50 [8] was 5.44 µM and the TGI [8] was 20.2 µM. It also gave a GI50 [9] of 1.64 µM, a TGI [9] of 11.7 µM and a GI50 [10] of 2.01 µM. For the same molecule, the TGI [10] was 14.7 µM, the GI50 [11] was 5.49 µM and the TGI [11] was 14.1 µM. The GI50 [12] was 1.41 µM, the TGI [12] was 14.8 µM and the GI50 [13] was 1.28 µM. For the same molecule, the TGI [13] was 20.9 µM, the GI50 [14] was 1.18 µM and the TGI [14] was 16.2 µM. For the same molecule, the GI50 [15] was 1.28 µM, the TGI [15] was 15.9 µM and the GI50 [16] was 0.816 µM. It also gave a TGI [16] of 4.93 µM, a GI50 [17] of 1.22 µM and a TGI [17] greater than 33.3 µM. The GI50 [18] was 1 µM, the TGI [18] was 5.16 µM and the GI50 [19] was 3.29 µM. It also gave a TGI [19] of 14.6 µM, a GI50 [20] of 0.972 µM and a TGI [20] of 2.93 µM. The GI50 [21] was 1.33 µM, the TGI [21] was greater than 33.3 µM and the GI50 [22] was 2.09 µM. The TGI [22] was 16.2 µM, the GI50 [23] was 3.35 µM and the TGI [23] was 18.5 µM. It also gave a GI50 [24] of 1.17 µM, a TGI [24] of 7.2 µM and a GI50 [25] of 2.14 µM. The TGI [25] was 21 µM, the GI50 [26] was 1.28 µM and the TGI [26] was 7.47 µM. It also gave a GI50 [27] of 1.64 µM, a TGI [27] of 18.1 µM and a GI50 [28] of 1.4 µM. For the same molecule, the TGI [28] was 21 µM, the GI50 [29] was 2.3 µM and the TGI [29] was 13.2 µM.

From PubChem BioAssay (NCI)
